# Data from patent US11096881B2, “Use of thiophosphate derivatives as skin depigmenting agents” (dated 2021).
# Key:
# [1] = Stability and colour change in cream conditions
# B16 melancytes = assay: Inhibition of melanin synthesis in cultured B16 melanocytes; details: 10 micromolar, 5 consecutive days
# [2] = tested on: skin of six human volunteers with phototypes III; assay: 5% creams on skin of human volunteers, skin colour by Dermacatch colorimeter; details: 5% (w/w) cream once daily, six weeks
substance,measurement,setting,value
Cysteamine-phosphate,stability in cream conditions,[1]; cream,unstable
same,time to oxidation to orange-red by-product that changes the colour of the creams,[1]; cream conditions,a few hours
same,effect on the melanin content of viable B16 melanocytes,B16 melancytes,no effect
same,Melanin values (change after treatment),[2],significantly reduced
